This passage reports Ratio and Ratio AUC results from ChEMBL document CHEMBL4316619 (Bioorg Med Chem Lett, 2019).

A short description of data set [1]: Efflux ratio of permeability from basolateral to apical over apical to basolateral side in human Caco2 cells in presence of 3% BSA. The following applies: caco-2.
Data set [2] is described as follows: Ratio of AUClast in liver to plasma of C57BL/6 mouse at 30 mg/kg, ip. The following applies: other tissue, strain C57BL/6, Liver/Plasma.
Data set [3] can be described thus: Ratio of AUClast in lung to plasma of C57BL/6 mouse at 30 mg/kg, ip. The following applies: other tissue, strain C57BL/6, Lung/Plasma.

As to `COc1cc(-c2ccnc3c2c(C)nn3-c2ccc(C(F)(F)F)cc2)ccc1O`, the Ratio in data set [1] came to 1.2. For the same compound, the Ratio AUC in data set [2] is 1050%; in data set [3], 704%.
